## Reported vapor pressure values for industrial, environmental and drug-like chemicals

Vapor pressure is log10 of mmHg; the set covers 15 to 30 °C, mostly 20 to 25 °C.
The databases behind each value are named after "via".

Clc1ccc(Cl)c(-c2c(Cl)cccc2Cl)c1Cl is reported with log vapor pressure -3.924 (log10 mmHg) (via OCHEM). CCCCCCCCOP(=O)(OCCCCCCCC)c1ccccc1 has log vapor pressure -5.71 (log10 mmHg) (via OCHEM). For C=C[Si](Cl)(Cl)CC the data give log vapor pressure 1.23 (log10 mmHg) (via OCHEM). Brc1cccc(Oc2c(Br)cc(Br)cc2Br)c1 has log vapor pressure -5.569 (log10 mmHg) (via OCHEM). CCCCCCCC/C=C\CCCCCCCCO[PH](=O)OCCCCCCCC/C=C\CCCCCCCC has log vapor pressure -6.364 (log10 mmHg) (via eChemPortal). For Cc1cc(C)nc(N)n1 the data give log vapor pressure -1.699 (log10 mmHg) (via OCHEM). The entry for Oc1ccc(Cl)c(O)c1 lists log vapor pressure -1.894 (log10 mmHg) (via eChemPortal).

Listed for CO[Si](CCCn1c(=O)n(CCC[Si](OC)(OC)OC)c(=O)n(CCC[Si](OC)(OC)OC)c1=O)(OC)OC: log vapor pressure -3.084 (log10 mmHg) (via eChemPortal). CCCCOC(=O)CSCSCC(=O)OCCCC has log vapor pressure -5.674 (log10 mmHg) (via eChemPortal). The entry for Clc1cc(Cl)cc(-c2cc(Cl)c(Cl)c(Cl)c2)c1 lists log vapor pressure -5.235 (log10 mmHg) (via OCHEM). The entry for C=CN1CCCC1=O lists log vapor pressure -1.006 (log10 mmHg) (via eChemPortal). Listed for CC(C)CCCCCCCCCCCCCCC(=O)[O-].CC(C)CCCCCCCCCCCCCCC(=O)[O-].[Ca+2]: log vapor pressure -5.648 (log10 mmHg) (via eChemPortal). Listed for C=CC(=O)NC(C)(C)CS(=O)(=O)[O-].[Na+]: log vapor pressure -10.26 (log10 mmHg) (via eChemPortal). The entry for c1ccc(Nc2cccc3ccccc23)cc1 lists log vapor pressure -5.092 (log10 mmHg) (via OFMPub, eChemPortal).

C[Si](C)(Cl)CCCCl has log vapor pressure -0.394 (log10 mmHg) (via eChemPortal). CCCCCC(=O)OCC is reported with log vapor pressure 0.415 (log10 mmHg) (via eChemPortal). C[C@H]1CC[C@@H](O)CC1 is reported with log vapor pressure -0.447 (log10 mmHg) (via OCHEM). ON=Cc1ccccn1 is reported with log vapor pressure -3.664 (log10 mmHg) (via eChemPortal). ClC(Cl)(Cl)C1CO1 (centres undefined) has log vapor pressure 1.064 (log10 mmHg) (via PubChem). The entry for CC(C)(C)C1=CC(=Cc2ccccc2)C=C(C(C)(C)C)C1=O lists log vapor pressure -4.28 (log10 mmHg) (via eChemPortal). The entry for OCCN1CCOCC1 lists log vapor pressure -1.084 (log10 mmHg) (via eChemPortal).

For CCCCCCCCCCCCCCCC(=O)OC/C=C(C)/C=C/C=C(C)/C=C/C1=C(C)CCCC1(C)C the data give log vapor pressure -6.417 (log10 mmHg) (via eChemPortal). For Clc1cc(Cl)c(-c2c(Cl)cc(Cl)c(Cl)c2Cl)c(Cl)c1 the data give log vapor pressure -4.907 (log10 mmHg) (via OCHEM). Listed for O=CN1CCOCC1: log vapor pressure -1.537 (log10 mmHg) (via eChemPortal). CNCCC[Si](OC)(OC)OC is reported with log vapor pressure -0.523 (log10 mmHg) (via eChemPortal). CC(C)(C)c1cc(CCC(=O)OCCSCCOC(=O)CCc2cc(C(C)(C)C)c(O)c(C(C)(C)C)c2)cc(C(C)(C)C)c1O has log vapor pressure -11 (log10 mmHg) (via eChemPortal). COC(=O)C1CCCO1 (centres undefined) has log vapor pressure 0.154 (log10 mmHg) (via eChemPortal). The entry for Brc1cccc(Br)c1Oc1ccccc1 lists log vapor pressure -3.684 (log10 mmHg) (via OCHEM).

OCC(O)CS (centres undefined) has log vapor pressure -2.023 (log10 mmHg) (via eChemPortal). Listed for Clc1cc(Cl)c(Cl)c(-c2cc(Cl)c(Cl)c(Cl)c2Cl)c1: log vapor pressure -5.385 (log10 mmHg) (via OCHEM). The entry for C[Si](C)(CCCN)O[Si](C)(C)CCCN lists log vapor pressure -2.439 (log10 mmHg) (via eChemPortal). For C[N+](C)(C)CC(O)CSCCC(F)(F)C(F)(F)C(F)(F)C(F)(F)C(F)(F)C(F)(F)F.[Cl-] (centres undefined) the data give log vapor pressure -8.101 (log10 mmHg) (via eChemPortal). C=CCCCCCCCCCCCCCCCCCCCCCCCCCC is reported with log vapor pressure -6.401 (log10 mmHg) (via OFMPub). For CNC[C@H](O)[C@@H](O)[C@H](O)[C@H](O)CO the data give log vapor pressure -7.673 (log10 mmHg) (via eChemPortal). Listed for Clc1cc(Cl)c2c(Cl)c(Cl)c(Cl)c(Cl)c2c1Cl: log vapor pressure -5.735 (log10 mmHg) (via OCHEM).

Clc1c(Cl)c(Cl)c2c(Cl)cccc2c1Cl is reported with log vapor pressure -4.375 (log10 mmHg) (via OCHEM). The entry for [Na+].c1ccc2[n-]nnc2c1 lists log vapor pressure -5.084 (log10 mmHg) (via eChemPortal). COc1cccc(C(C)N)c1 (centres undefined) has log vapor pressure -1.699 (log10 mmHg) (via eChemPortal).

Extract of 5 entries:

For CO[Si](CCCn1c(=O)n(CCC[Si](OC)(OC)OC)c(=O)n(CCC[Si](OC)(OC)OC)c1=O)(OC)OC the data give log vapor pressure -3.084 (log10 mmHg) (via eChemPortal).
For CC(C)(C)c1cc(CCC(=O)OCCSCCOC(=O)CCc2cc(C(C)(C)C)c(O)c(C(C)(C)C)c2)cc(C(C)(C)C)c1O the data give log vapor pressure -11 (log10 mmHg) (via eChemPortal).
For Clc1cc(Cl)c(Cl)c(-c2cc(Cl)c(Cl)c(Cl)c2Cl)c1 the data give log vapor pressure -5.385 (log10 mmHg) (via OCHEM).
For C=CN1CCCC1=O the data give log vapor pressure -1.006 (log10 mmHg) (via eChemPortal).
For Clc1ccc(Cl)c(-c2c(Cl)cccc2Cl)c1Cl the data give log vapor pressure -3.924 (log10 mmHg) (via OCHEM).

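These are experimental values that the OPERA curators gathered from public databases to train and test their QSAR models. A listed value is a point estimate from one report or more. Method, purity and exact conditions of the single measurements are not given. Where a salt, mixture or single isomer is drawn, the source does not say that exactly this form was tested. Some upstream entries may be estimates or bounds without being marked so.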

From the experimental data distributed with OPERA 2.9.